Reference: patent publication US20130142784A1, “METHOD OF TREATING TUMOR RESISTANT TO HERCEPTIN OR PACLITAXEL USING FOXM1 INHIBITORS AND DETECTING SAME” (The Board of Trustees of the University of Illinois, priority 2010, published 2013)

What was measured:
[1] = test system: SKBR3-pBabe and FoxM1 lines; test: BrdU incorporation; type: cell-based, human; settings: treated for 72 hours
Method: Further, incorporation of BrdU was measured in cells treated with HERCEPTIN (FIG. 1C). 5-Bromo-2-Deoxyuridine (BrDU, obtained from Sigma Chemical Co., St. Louis, Mo.; 10 μM) was added to the culture media. Cells were fixed and stained with mouse anti-BrdU antibody (1:250, Dako, Carpinteria, Calif.) followed by FITC-conjugated anti-mouse antibody (Dako) and DAPI (Molecular Probes/Invitrogen).

[2] = test system: resistant SKBR3, MDA-MB-453, and BT474 lines; test: growth of HERCEPTIN resistant lines; type: cell-based, human; settings: after six months continuous culture in 5 ug/ml
Method: To determine whether cells resistant to HERCEPTIN could be resensitized to HERCEPTIN treatment, a cell line resistant to HERCEPTIN was generated. Parental SKBR3, MDA-MB-453, and BT474 lines were cultured continuously in 5 ug/ml of HERCEPTIN for six months. […] The source of resistance in these lines was not uniform, as an increase in phosphorylated Akt was only observed in SKBR3 cells. FoxM1 levels in parental and resistant lines were assayed by western blot analysis. Extracts were prepared in lysis buffer containing 1 mM EDTA, 0.15M NaCl, 0.05M Tris-HCl pH 7.5, and 0.5% Triton-X. Phosphatate Inhibitor Cocktail Set II (Calbiochem) and protease inhibitor (Roche) were added before each experiment using the rabbit polyclonal antibody referenced above. Quantification was performed using Image J software (NIH).

[3] = test system: FoxM1 and p27 protein levels in SKBR3-pBabe and SKBR3-FoxM1 cells; test: western blot of FoxM1 and p27 levels; type: cell-based, human
Method: Cell extracts were prepared in lysis buffer containing 1 mM EDTA, 0.15M NaCl, 0.05M Tris-HCl pH 7.5, and 0.5% Triton-X. Phosphatate Inhibitor Cocktail Set II (200 mM imidazole, 100 mM sodium fluoride, 115 mM sodium molybdate, 100 mM sodium orthovanadat, and 400 mM sodium tartrate, dehydrate, catalog No. 524625, Calbiochem) and protease inhibitor (Roche, catalog No. 11873580001, previously No. 115773860001) were added before each experiment. FoxM1 protein levels were determined by western blot analysis using a rabbit polyclonal antibody against FoxM1 previously described (Major et al., 2004, “Forkhead Box M1B transcriptional activity requires binding of Cdk-cycline complexes for phosphorylation-dependent recruitment of p300/CBP coactivators,” Mol Cell 24: 2649-61). Anti kip1/p27 (1:10,000, BD Biosciences), and anti-Cdk2 (1:200, Santa Cruz Biotech.) antibodies were also used. Quantification was performed using Image J software (NIH).

[4] = cited from earlier work
[5] = test system: SKBR3, BT474, and MDA-MB-453 pBabe and FoxM1 cell lines; test: cell cycle analysis by propidium iodide staining and flow cytometry; type: cell-based, human
Method: The percentage of G1/S arrest in the cell cycle induced by trastuzumab (referred to as HERCEPTIN in the drawings contained herein) was measured by propidium iodide staining followed by flow cytometry (FACS) analysis. Cells were treated with trastuzumab (10 ug/ml) for 72 hours and cell cycle profiles examined. For cell cycle analysis, cells were trypsinized, pelleted, and resuspended in propidium iodide (PI) solution (50 ug/ml PI, 0.1 mg/ml RNaseA, 0.05% Triton-X). After 40 minutes of incubation at 37° C., cells were analyzed using a flow cytometer. Synchronization of MDA-MB-453 cells for cell cycle analysis was done by subjecting the cells to serum starvation (0.2% FBS) for 24 hours, followed by incubating the cells in medium containing 10% FBS for 6 hours, and addition of 5 ug/ml of aphidicolin (Calbiochem) for 16 hours.

[6] = test system: SKBR3, BT474, and MDA-MB-453 cell lines; test: colony formation assay with trastuzumab, pBabe vs FoxM1 stable lines; type: cell-based, human; settings: trastuzumab 10 ug/ml continuously for 14-17 days
Method: To investigate the effects of FoxM1 overexpression on trastuzumab resistance in breast tumor cells, FoxM1 expression cDNA construct was stably introduced into SKBR3, BT474, and MDA-MB-453 cell lines. All three cell lines have chromosomal amplification of HER2/ErbB2 and only the BT474 cell line expresses estrogen receptor. Drug sensitivity of the FoxM1 stably transfected cell lines was tested by colony formation assay. […] 24 hours later, cells were treated with trastuzumab (10 ug/ml) continuously for 14-17 days. […] Quantification was done using Adobe Photoshop (Lehr et al., 1997, “Application of photoshop-based image analysis to quantification of hormone receptor expression in breast cancer,” J. Histochem Cytochem 45: 1559-65). […] The results provide evidence that FoxM1 confers cells resistance to trastuzumab.

[7] = control SKBR3 cells, 10 ug/ml for 24-72 hours or 0.1-10 ug/ml

HERCEPTIN: humanized monoclonal antibody directed to the extracellular domain of HER2/ErbB2
BrdU-incorporation ([1]; FoxM1-expressing cells): did not show any significant decrease | reduction in the number of BrdU-positive cells ([1]; SKBR3-pBabe): 35% | growth rate of resistant cells [2]: grew at the same rate in the presence or absence of HERCEPTIN | p27 levels ([3]; SKBR3-FoxM1 cell lines, high doses): remained low | FoxM1 protein levels [3, 7]: decreased | p27 levels [3, 7]: accumulated | efficacy of combinatorial treatment ([4]; combinatorial treatment with microtubule stabilizing drugs such as paclitaxel): approximately 60% | efficacy as a monotherapy ([4]; monotherapy): less than 30% | G1 population ([5]; FoxM1-expressing cells, 10 ug/ml): did not exhibit any significant increase | sub-G1 population ([5]; all cell lines, data not shown): None of the cell lines showed an increase | number of cells in G1 ([5]; control pBabe lines, 10 ug/ml): statistically significant increase | colony number, FoxM1 overexpression compared to pBabe alone [6]: three- to seven-fold increase in colony number
